# Laboratory results from US20160075651A1, “GLYCOLIPID INHIBITION USING IMINOSUGARS” (UNITHER VIROLOGY, LLC, priority 2013, published 2016).
# Protein sequences, listed by entry. Tags and fused reporters are not part of them. Lines headed by an entry give the natural chain unless they say otherwise; changes in a name come on top. Residues count along the entry.
# UniProt P04062, 40-536 limits assumed: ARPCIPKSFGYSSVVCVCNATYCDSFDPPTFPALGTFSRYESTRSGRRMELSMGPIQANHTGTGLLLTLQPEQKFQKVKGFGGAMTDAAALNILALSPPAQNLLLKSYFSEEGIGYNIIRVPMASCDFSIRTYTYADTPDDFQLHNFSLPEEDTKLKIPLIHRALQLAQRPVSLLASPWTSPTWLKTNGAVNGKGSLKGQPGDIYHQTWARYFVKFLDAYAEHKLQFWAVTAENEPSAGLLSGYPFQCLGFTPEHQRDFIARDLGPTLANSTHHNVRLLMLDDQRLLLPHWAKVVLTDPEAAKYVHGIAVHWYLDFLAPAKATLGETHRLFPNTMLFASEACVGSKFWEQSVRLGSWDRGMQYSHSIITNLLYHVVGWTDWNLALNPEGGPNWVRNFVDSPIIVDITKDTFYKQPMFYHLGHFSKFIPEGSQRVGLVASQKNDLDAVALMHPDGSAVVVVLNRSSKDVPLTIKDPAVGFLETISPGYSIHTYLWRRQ
# UniProt P04062, 40-536 N409S limits assumed: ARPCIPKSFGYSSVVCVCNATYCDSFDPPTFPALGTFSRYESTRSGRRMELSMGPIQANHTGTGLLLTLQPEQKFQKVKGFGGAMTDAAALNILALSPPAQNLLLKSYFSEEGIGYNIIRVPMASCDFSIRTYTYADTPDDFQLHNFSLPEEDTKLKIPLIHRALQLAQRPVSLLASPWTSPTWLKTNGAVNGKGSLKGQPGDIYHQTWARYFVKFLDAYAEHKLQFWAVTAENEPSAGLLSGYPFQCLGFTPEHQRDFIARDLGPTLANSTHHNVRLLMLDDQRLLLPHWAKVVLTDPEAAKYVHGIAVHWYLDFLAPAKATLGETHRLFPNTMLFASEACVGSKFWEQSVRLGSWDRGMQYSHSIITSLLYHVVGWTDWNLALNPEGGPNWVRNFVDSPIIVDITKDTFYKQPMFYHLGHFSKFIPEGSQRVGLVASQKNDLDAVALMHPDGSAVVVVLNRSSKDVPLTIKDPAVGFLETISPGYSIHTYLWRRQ
# UniProt Q16739, whole entry: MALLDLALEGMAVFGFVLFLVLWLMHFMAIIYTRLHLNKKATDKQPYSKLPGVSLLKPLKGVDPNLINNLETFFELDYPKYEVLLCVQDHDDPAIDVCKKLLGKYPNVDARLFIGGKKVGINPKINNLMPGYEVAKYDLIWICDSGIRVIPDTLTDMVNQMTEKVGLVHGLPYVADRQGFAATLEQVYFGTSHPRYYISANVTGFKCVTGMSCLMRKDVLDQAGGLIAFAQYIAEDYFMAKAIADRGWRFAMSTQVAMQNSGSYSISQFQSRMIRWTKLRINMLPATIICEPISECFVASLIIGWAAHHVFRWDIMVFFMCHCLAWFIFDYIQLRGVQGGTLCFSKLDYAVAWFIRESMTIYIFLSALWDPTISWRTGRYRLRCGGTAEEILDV
# How the values were obtained:
# [1] = target: human placental β-glucocerebrosidase (Homo sapiens, UniProt P04062); test: β-Glucocerebrosidase inhibition assay (4-methylumbelliferyl-β-glucoside, fluorogenic); type: biochemical; conditions: read-out: IC50 (μM), 50% inhibition of β-glucocerebrosidase activity; human placental enzyme, 0.5 mM 4-MU-β-glucoside, pH 5.2
# [2] = target: β-glucocerebrosidase (N370S mutant) (Homo sapiens, UniProt P04062, N409S); test: β-Glucocerebrosidase activation (chaperone) assay in Gaucher N370S cells; type: cell-based; conditions: 3 days, versus untreated cells
# [3] = target: ceramide glucosyltransferase (Homo sapiens, UniProt Q16739); test: Ceramide glucosyltransferase cellular assay (GM3 reduction in HL60 cells, NP-HPLC); type: cell-based; conditions: read-out: IC50 (μM), 50% inhibition of ceramide glucosyltransferase activity in HL60 cells, 3 days, GM3 peak area
IC50 [1] [µM],Activation fold at 10 μM [2] [fold],IC50 [3] [µM],SMILES
7.57,1.8,10.3,CCCOCCCCCCN1C[C@H](O)[C@@H](O)[C@H](O)[C@H]1CO
0.079,1.75,–,OC[C@@H]1[C@@H](O)[C@H](O)[C@@H](O)CN1CCCCCCCNc1ccc(F)cc1F
